# Assay: Meloxicam solubility in various solvents
# Type: physicochemical
# Conditions: solvents of Table 2
compound,measurement,value
"Cc1cnc(NC(=O)C2=C(O)c3ccccc3S(=O)(=O)N2C)s1 [Meloxicam, 4-hydroxy-2-methyl-N-(5-methyl-2-thiazolyl)-2H-1,2-benzothiazine-3-carboxamide-1,1-dioxide]",dissolution upon addition of very small amounts of 1 M NaOH solution,completely dissolved
